# Test results: PubChem BioAssay AID504692 (The Scripps Research Institute Molecular Screening Center, 2011)
# By UniProt entry, the sequences of proteins in these tests, tags left out.
# UniProt P47898, whole entry, looked up: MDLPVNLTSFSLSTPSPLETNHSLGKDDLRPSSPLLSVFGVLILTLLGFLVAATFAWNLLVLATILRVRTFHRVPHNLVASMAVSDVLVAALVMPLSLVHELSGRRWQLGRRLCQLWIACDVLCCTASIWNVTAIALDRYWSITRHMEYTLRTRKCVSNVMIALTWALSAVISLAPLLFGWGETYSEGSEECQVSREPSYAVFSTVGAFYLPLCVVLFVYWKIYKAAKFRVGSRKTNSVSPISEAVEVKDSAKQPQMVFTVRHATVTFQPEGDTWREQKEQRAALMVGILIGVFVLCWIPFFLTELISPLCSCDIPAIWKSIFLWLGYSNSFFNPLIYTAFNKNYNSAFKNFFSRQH
# Only a part is listed here, and it is no random draw. Calls of active or inactive are those of the source. Cut-off read from the data, not from the text of the source: active = activation mostly above about 9.5% (no sharp cut-off); inactive = mostly below about 7.6%.
# Target: 5-hydroxytryptamine receptor 5A (Homo sapiens) (UniProt P47898)
# Test: activation of human 5-HT5A receptor – cell-based, luminescence, full-deck HTS, counter-screen for OPRM1-OPRD1 heterodimer agonist project, primary screen (AID 504692);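 note: 0% = cells with vehicle only and 100% = reference agonist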
# Conditions: HTR5A agonist assay, at 9.3 µM, hits give high values
row,Structure (SMILES),activation
1,CCOC(=O)C1=C(Cn2cnc3ccccc32)NC(=O)NC1c1cc(C)ccc1C (stereo unspecified),inactive: 5.67%
2,O=C(Cn1cnc2c(OCc3ccccc3)ncnc21)NCc1ccc2[nH]ccc2c1,inactive: 6.29%
3,CCn1nccc1C(=O)Nc1nc2ccccc2n1CCN1CCCCC1,inactive: 3.64%
4,N=c1n(CCN2CCOCC2)c2ccccc2n1CC(=O)c1ccc(Cl)c(Cl)c1,inactive: -1.19%
5,Cc1nc2cc(C(F)(F)F)ccc2n1C1CCN(Cc2nnnn2Cc2cccs2)CC1,inactive: -2.09%
6,O=C(Cn1c(=O)n(CC2CS2)c2ccccc21)N1CCCCC1 (stereo unspecified),inactive: 0.15%
7,CS(=O)(=O)Cc1nc2ccccc2n1CC(=O)Nc1cccc(S(=O)(=O)N2CCCC2)c1,inactive: 1.98%
8,CCOc1ccc(NC(=O)N2CCC(n3c(=O)[nH]c4ccccc43)CC2)cc1,inactive: 8.1%
9,COCC(C)NC(=O)Cn1c(SCc2ccccc2)nc2ccccc21 (stereo unspecified),inactive: 1.61%
10,O=[As](O)(c1ccccc1)c1ccc(O)cc1,inactive: 3.5%
11,CC1CCCC(NC(=O)Cn2c(Cl)nc3c2c(=O)n(C)c(=O)n3C)C1C (stereo unspecified),inactive: 4.17%
12,O=C(Cn1cnc2c(NCc3ccccc3)ncnc21)NCc1ccccc1,inactive: -2.05%
13,Cc1nc2ccc(S(=O)(=O)NC(C(=O)N3CCn4c3nc3ccccc34)C(C)C)cc2s1 (stereo unspecified),inactive: 0.46%
14,CCN(CC)CCn1c(NC(=O)c2ccccc2O)nc2ccccc21,inactive: 2.43%
15,CN(C)C(=O)Cn1c(SCC(=O)NC2CCCCC2)nc2ccccc21,inactive: 1.17%
16,CC(=O)Nc1ccc2c(c1)nc1n2CCN(C(C)c2ccccc2)C1 (stereo unspecified),inactive: -0.2%
17,O=C(Nc1ccccc1Cl)N1CCn2c(nc3ccccc32)C1,inactive: 2.62%
18,C(Cc1nn[nH]n1)Cc1nn[nH]n1,inactive: -0.65%
19,Cn1c(=O)[nH]c(=O)c2c1nc(CN(Cc1ccccc1)Cc1ccccc1)n2CCN1CCOCC1,inactive: 2.5%
20,COc1ccc(CCNC(=O)Cn2cnc3c2c(=O)n(C)c(=O)n3C)cc1OC,inactive: 6%
21,COc1ccc(C(=O)N2CCn3c2nc2ccccc23)cc1,inactive: 8.8%
22,N=c1n(CCO)c2ccccc2n1CCN1CCCCC1,inactive: -2.58%
23,Nc1ccc([As](=O)(O)c2ccc([N+](=O)[O-])cc2)cc1,inactive: -2.89%

row,Structure (SMILES),activation
1,CSCC[C@H](NC(=O)N1CCn2c1nc1ccccc12)C(=O)NCc1ccc(F)cc1,inactive: -2.6%
2,COc1cc(C(=O)OCCn2c(=O)c3c(ncn3CCN(C)C)n(C)c2=O)cc(OC)c1OC,inactive: 3.25%
3,O=C(Cn1c(CC(=O)N2CCCC2)nc2ccccc21)NCc1ccccc1,inactive: -0.46%
4,Cc1ccc2c(c1)C1CN(C)CCC1N2C(=O)/C=C/c1ccc2c(c1)OCO2 (stereo unspecified),inactive: 3.43%
5,COCCOC(=O)C1=C(C)N=C2SCCC(=O)N2C1/C=C/c1ccccc1 (stereo unspecified),inactive: -4.05%
6,O=C(Nc1cccc(F)c1)N1CCC(n2c(=O)[nH]c3ccccc32)CC1,inactive: 3.07%
7,COc1ccc(N2C(=O)CC(N3CCC(n4c(=O)[nH]c5ccccc54)CC3)C2=O)cc1 (stereo unspecified),inactive: 4.19%
8,CC(C)C[C@H](NC(=O)N1CCn2c1nc1ccccc12)C(=O)N[C@@H](Cc1ccccc1)C(=O)O,inactive: 0.27%
9,CCn1c(N)[n+](CC(=O)Nc2ccc(SC(F)F)cc2)c2ccccc21,inactive: 4.26%
10,O=C(OC1CN2CCC1CC2)c1cccc(Cl)c1 (stereo unspecified),inactive: 3.61%
11,O=C(Cn1cnc2c(OCc3ccccc3)ncnc21)NCc1nc2ccccc2[nH]1,inactive: -0.96%
12,CSCC[C@H](NC(=O)N1CCn2c1nc1ccccc12)C(=O)NCC1CCCO1 (stereo partly specified),inactive: 1.64%
13,CC(O)c1nc2ccccc2n1CC(=O)Nc1ccc2c(c1)OCCO2 (stereo unspecified),inactive: 2.79%
14,O=C(Cn1cnc2ccccc21)N/N=C/c1ccccn1,inactive: -0.16%
15,CSc1ccccc1NC(=O)Cn1c(-c2cscn2)nc2ccccc21,inactive: 0.09%
16,Cc1ccc(/C=N/NC(=O)Cn2cnc3c2c(=O)n(C)c(=O)n3C)s1,inactive: -4.09%
17,CC(C)(C)NC(=O)Cn1c(Cl)nc2ccccc21,inactive: 8.11%
18,COc1ccc(N)c([N+](=O)[O-])c1[N+](=O)[O-],inactive: 1.38%
19,c1ccc2c(c1)nc(NCc1ccc3c(c1)OCO3)n2CCN1CCOCC1,inactive: -7.4%
20,Cc1nnc(NC(=O)Cn2cnc3c2c(=O)n(C)c(=O)n3C)s1,inactive: -1.9%
21,COC(=O)[C@H](CC(C)C)NC(=O)Cn1cnc2c(NCc3ccccc3)ncnc21,inactive: 0.14%
22,O=C(Cn1cnc2ccccc21)Nc1ccc2c(c1)OCCCO2,inactive: 8.51%
23,CCN(CC)CCn1c(=N)n(CC(=O)c2ccc(C)cc2)c2ccccc21,inactive: -0.36%

row,Structure (SMILES),activation
1,O=P(Nc1ccccn1)(c1ccc(Br)cc1)c1ccc(Br)cc1,inactive: 3.97%
2,CCC(=O)Nc1ccc(NC(=O)/C=C/c2ccc(Cl)cc2)cc1,inactive: 0.24%
3,NC(=O)Cn1c2[n+](c3ccccc31)CC(O)CS2 (stereo unspecified),inactive: -1.47%
4,O=C(CSc1nc2ccccc2n1CC(=O)N1CCCC1)N1CCN(C(=O)c2ccco2)CC1,inactive: 1.21%
5,CC(O)CNc1nc2ccccc2n1CC(=O)NCC(F)(F)F (stereo unspecified),inactive: 0.16%
6,C[C@H](NC(=O)N1CCn2c1nc1ccccc12)C(=O)NCCc1ccccc1,inactive: -4.74%
7,CCN(CC)CCn1c(NCc2ccccn2)nc2ccccc21,inactive: 2.48%
8,Cc1ccc(C(C(=O)NC2CCCCC2)N(Cc2ccco2)C(=O)Cn2cnc3ccccc32)cc1 (stereo unspecified),inactive: 1.77%
9,CCN(CC)CCn1c(N)nc2ccccc21,inactive: -5.09%
10,Cn1c(=O)n(CC(=O)Nc2cccnc2)c2ccccc21,inactive: 3.62%
11,N=c1n(CCN2CCCC2)c2ccccc2n1CC(O)c1ccco1 (stereo unspecified),inactive: -0.64%
12,O=P(Nc1nc2ccccc2s1)(c1ccccc1)c1ccccc1,inactive: -0.12%
13,Cn1c(=O)c2c(ncn2CC(=O)Nc2nc(-c3ccc(F)c(F)c3)cs2)n(C)c1=O,inactive: -2.29%
14,CC(C)N(C(=O)Cn1c(SCC(=O)NC2CC2)nc2ccccc21)C(C)C,inactive: 1.15%
15,Cn1c(=O)c2c(ncn2CC(=O)N2CCOCC2)n(C)c1=O,inactive: 8.93%
16,Cc1cc2ncn(C3CC(=O)N(Cc4ccc(N5CCCC5=O)cc4)C3=O)c2cc1C (stereo unspecified),inactive: 1.63%
17,C[C@H]1OP(=O)(Oc2ccccc2)[C@H](O)[C@H](O)[C@H]1N=[N+]=[N-] (stereo partly specified),inactive: -2.2%
18,COc1ccccc1OCCSc1nc2ccccc2n1CC(N)=O,inactive: 3.1%
19,CCN(CC)CCn1c(NS(=O)(=O)c2ccc(Cl)cc2)nc2ccccc21,inactive: 1.69%
20,COc1ccc(OC)c(C(=O)CSc2nc3ccccc3n2CC(=O)NC(C)(C)C)c1,inactive: 9.63%
21,O=c1oc2ccccc2c2c1ncn2CCN1CCOCC1,inactive: -1.55%
22,Cc1ccc(Cn2nnnc2CN2CCC(n3nnc4ccccc43)CC2)cc1,inactive: 6.52%
23,O=C(Cn1c2[n+](c3ccc(C(F)(F)F)cc31)CCCCC2)Nc1ccccc1,inactive: 1.15%

row,Structure (SMILES),activation
1,Cc1nc2ccccc2n1CC(=O)NC1CCCC1,inactive: -0.97%
2,CCOCN(C(=O)Cn1c(CO)nc2ccccc21)c1c(C)cccc1CC,inactive: -4.66%
3,Cc1ccc(C(=O)Cn2c(=N)n(CCN3CCOCC3)c3ccccc32)cc1,inactive: 1.63%
4,CSCC[C@H](NC(=O)N1CCn2c1nc1ccccc12)C(=O)NC1CC1,inactive: 4.79%
5,O=C(NC1CCCCC1)C(c1ccccc1)N(Cc1ccco1)C(=O)Cn1cnc2ccccc21 (stereo unspecified),inactive: -1.56%
6,CCOc1ccc(CNc2nc3ccccc3n2CCN2CCOCC2)cc1,inactive: -2.3%
7,CCN(CC)c1ccc(NC(=O)Cn2c(C(C)NC(=O)c3ccc(C)cc3)nc3ccccc32)cc1 (stereo unspecified),inactive: -0.33%
8,O=S(=O)(c1ccccc1)c1nnn2c1nc(NC1CCN(Cc3ccccc3)CC1)c1cc(Cl)ccc12,inactive: -2.37%
9,COc1ccc(Cc2nnc(NC(=O)Cn3cnc4c3c(=O)n(C)c(=O)n4C)s2)cc1OC,inactive: -1.31%
10,CCCn1c(=O)c2c(nc3n2CCN3Cc2ccco2)n(C)c1=O,inactive: -0.02%
11,CSCC[C@H](NC(=O)N1CCn2c1nc1ccccc12)C(=O)NCc1ccc2c(c1)OCO2,inactive: 0.13%
12,O=S(=O)(c1ccc(Cl)cc1)N1CCn2c1nc1ccccc12,inactive: 6.1%
13,CC(/C=N/NC(=O)Cn1cnc2ccccc21)=C\c1ccccc1,inactive: 5.62%
14,CCOC(=O)c1cccc(NC(=O)Cn2cnc3c2c(=O)n(C)c(=O)n3C)c1,inactive: 1.52%
15,CC(=O)NC(C)c1nc2ccccc2n1CC(=O)NC(C)CCc1ccccc1 (stereo unspecified),inactive: -2.22%
16,Cn1c(=O)c2c(nc(CN3CCN(C(c4ccccc4)c4ccccc4)CC3)n2CC(N)=O)n(C)c1=O,inactive: 3.88%
17,CCN1C(=O)CC(n2c(C)nc3ccccc32)C1=O (stereo unspecified),inactive: 4.1%
18,CCc1cccc(C)c1NC(=O)CSc1nc2ccccc2n1CC(=O)N(C)C,inactive: -3.49%
19,Cn1c(=O)[nH]c(=O)c2c1nc(N1CCCCCC1)n2CC(N)=O,inactive: -2.63%
20,COc1ccc(-c2nn(-c3ccccc3)cc2C(=O)N2c3ccc(C)cc3C3CN(C)CCC32)cc1 (stereo unspecified),inactive: 0.47%
21,Nc1nonc1-c1nc2ccccc2n1CC(=O)N/N=C/c1ccc(-c2ccccc2C(=O)O)o1,inactive: -2.02%
22,Cc1cccc(OCC(O)Cn2c(=N)n(CCN3CCCCC3)c3ccccc32)c1 (stereo unspecified),inactive: 1.62%
